One test deals with hPAH (Homo sapiens, UniProt P00439). Briefly: SPR screening and affinity determination on immobilized hPAH (Biacore T200). The following applies: read-out: KD (μM) ± SER, 25° C., compound 0-500 μM in 5% DMSO, affinities said to be overestimated, relative KD reliable.
The target of another test is human wild-type PAH (Homo sapiens, UniProt P00439). Briefly: PAH activity in lysates of HEK293 cells permanently expressing human wild-type PAH. The following applies: 0.04 mg/ml compound, 1% DMSO, 8 h; Table 3.

Sequences of proteins named here, by UniProt entry; tags and fusion partners are left off.
UniProt P00439, whole entry: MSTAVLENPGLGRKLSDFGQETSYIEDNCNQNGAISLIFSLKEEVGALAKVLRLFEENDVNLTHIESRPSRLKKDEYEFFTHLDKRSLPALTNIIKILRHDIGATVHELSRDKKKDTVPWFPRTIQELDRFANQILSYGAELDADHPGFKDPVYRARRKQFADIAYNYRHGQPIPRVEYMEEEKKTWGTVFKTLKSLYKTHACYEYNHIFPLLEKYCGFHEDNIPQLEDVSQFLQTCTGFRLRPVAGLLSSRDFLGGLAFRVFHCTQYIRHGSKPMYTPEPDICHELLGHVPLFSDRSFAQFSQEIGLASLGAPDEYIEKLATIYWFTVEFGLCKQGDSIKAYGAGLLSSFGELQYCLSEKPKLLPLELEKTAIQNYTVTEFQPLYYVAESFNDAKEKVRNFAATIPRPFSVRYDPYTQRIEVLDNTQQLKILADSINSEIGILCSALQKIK

In general, Kd refers to a measure of binding affinity in units of concentration.

For the compound `COc1ccc(Cc2c(O)nc(N)nc2O)cc1`, the Kd at hPAH was 860 µM. Also, the “PAH activity-cells (%)” value on human wild-type PAH is 112 ± 10%.

Source of the values: patent US10265303B2, “Hyperphenylalaninemia and treatments thereof” (BERGEN TEKNOLOGIOVERFØRING AS, priority 2015, dated 2019).
